{"sequences": {"note": "Chains of the proteins cited; added tags and fusions are not shown. Lines headed by an entry give the natural chain unless they say otherwise; changes in a name come on top.", "UniProt P35408": "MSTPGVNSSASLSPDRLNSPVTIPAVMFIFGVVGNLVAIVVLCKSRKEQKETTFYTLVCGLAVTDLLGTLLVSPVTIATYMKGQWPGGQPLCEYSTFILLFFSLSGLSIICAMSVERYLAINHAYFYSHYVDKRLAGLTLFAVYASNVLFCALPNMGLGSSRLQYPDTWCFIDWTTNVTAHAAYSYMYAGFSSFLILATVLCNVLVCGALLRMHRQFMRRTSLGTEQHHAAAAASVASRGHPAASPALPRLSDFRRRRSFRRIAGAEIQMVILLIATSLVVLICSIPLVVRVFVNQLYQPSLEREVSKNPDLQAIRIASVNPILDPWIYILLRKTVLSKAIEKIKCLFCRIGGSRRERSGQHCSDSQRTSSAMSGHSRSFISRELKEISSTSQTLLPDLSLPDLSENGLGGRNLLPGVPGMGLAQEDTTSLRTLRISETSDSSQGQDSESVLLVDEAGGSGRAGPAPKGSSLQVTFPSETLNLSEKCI"}, "source": "patent US9676712B2", "about": "“Lactam compounds as EP4 receptor-selective agonists for use in the treatment of EP4-mediated diseases and conditions” (Cayman Chemical Company, Inc., priority 2013, dated 2017)", "target": "Human Prostanoid EP4 Receptor (Homo sapiens (Human), UniProt P35408)", "experiment": "Radioligand binding assay, agonist site of the human prostanoid EP4 receptor in transfected HEK-293 cells ([3H]PGE2)", "experimental": "Radioligand Binding Assay for the Evaluation of the Affinity of Compounds for the Agonist Site of the Human Prostanoid EP4 Receptor in Transfected HEK-293 Cells\nFollowing incubation, the samples are filtered rapidly under vacuum through glass fiber filters (GF/B, Packard) presoaked with 0.3% PEI and rinsed several times with ice-cold 50 mM Tris-HCl using a 96-sample cell harvester (Unifilter, Packard). The filters are dried then counted for radioactivity in a scintillation counter (Topcount, Packard) using a scintillation cocktail (Microscint 0, Packard)."}
{"smiles": "CC(CCCc1ccccc1)[C@H](O)/C=C/[C@H]1CCC(=O)N1CCCCCCC(=O)O", "note": "(mixture of isomers) [Example 2C, 7-((2R)-2-((3S,E)-3-hydroxy-4-methyl-7-phenylhept-1-en-1-yl)-5-oxopyrrolidin-1-yl)heptanoic acid]", "values": [{"measurement": "IC50", "setting": "read-out: hEP4 receptor binding IC50", "value": 5.7, "unit": "nM"}, {"measurement": "Ki", "setting": "read-out: hEP4 receptor binding Ki", "value": 2.1, "unit": "nM"}]}
